In this data set the test system is BRB1 tyrosine kinase substrate peptide.

For SRC, the Signal to Noise Ratio with BRB1 Peptide (TR-FRET kinase assay; kinase 0.5 nM) is 31.7. The value for SYK was 24.6.
